Test [1] deals with T1, CXCR3 (Homo sapiens, UniProt P49682).
T1 construct: endogenous in cells
T1 sequence (P49682 1-368): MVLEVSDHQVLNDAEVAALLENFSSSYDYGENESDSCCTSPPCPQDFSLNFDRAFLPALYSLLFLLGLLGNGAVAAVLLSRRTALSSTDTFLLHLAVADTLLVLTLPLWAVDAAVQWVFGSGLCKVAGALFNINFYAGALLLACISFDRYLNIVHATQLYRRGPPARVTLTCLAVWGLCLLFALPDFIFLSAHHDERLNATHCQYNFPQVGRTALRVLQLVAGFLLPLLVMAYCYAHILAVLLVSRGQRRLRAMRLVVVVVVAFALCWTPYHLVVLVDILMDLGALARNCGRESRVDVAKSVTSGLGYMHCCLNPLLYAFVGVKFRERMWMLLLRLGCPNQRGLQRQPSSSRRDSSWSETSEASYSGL
The test is described as follows: HWB receptor occupancy (500 ng/ml ITAC). It is filed as cell-based.

Test [2] deals with T1, CXCR3. The test is described as follows: [125I]-IP-10 binding assay (CXCR3 binding). As for the experimental part: Unless otherwise noted, all reagents used are available from commercial sources (e.g., Sigma). Test compounds are diluted in DMSO to a concentration that is 40-times the intended final assay concentration; 5 μL are transferred to each well of a 96-well flat-bottomed polypropylene plate (e.g., from Greiner, Inc.). The cells were resuspended in assay buffer (25 mM Hepes, 80 mM NaCl, 1 mM CaCl2, 5 mM MgCl2, 0.2% bovine serum albumin, pH 7.1, stored at 4° C.) at 5 million cells per mL; 100 μL of this cell suspension is then transferred to each well of a 96-well plate containing the diluted test compounds. ^125I-labelled chemokine (purchased from commercial sources, e.g., Amersham, PE Life Sciences) is diluted in assay buffer to a concentration of approximately 60 pM; 100 μL of this chemokine solution is transferred to each well of a 96-well plate containing compounds and cell suspension. The plates are sealed with commercially available foil plate seals (e.g., from E&K Scientific), and stored at 4° C. for 2 to 4 h, shaking gently. […] The plates are counted on a scintillation counter, such as a Packard TopCount. […] Data were analyzed using commercially available software (e.g., Excel from Microsoft, Prism from GraphPad Software Inc.).

A word on the IC50: it is the midpoint of a concentration-inhibition curve. As for `CCOc1ccc(-n2c([C@@H](C)N(Cc3cccnc3)C(=O)Cc3ccc(OC(F)(F)F)cc3)nc3ncccc3c2=O)cc1` [AMG 487, reference compound], the IC50 against CXCR3 [1] was 72 ± 45 nM; on CXCR3 [2] (50% human plasma, primary, activated human lymphocytes, read-out: [125I]-IP-10 Binding IC50 (nM) 50% Plasma), 49 ± 22 nM; at CXCR3 [2] (buffer, read-out: [125I]-IP-10 Binding IC50 (nM) Buffer), 5 ± 2 nM.

Source of the values: patent publication US20110034487A1, “CXCR3 ANTAGONISTS” (AMGEN INC., priority 2009, published 2011).
